From ChEMBL document CHEMBL3351312, “Design of Fluorine-Containing 3,4-Diarylfuran-2(5H)-ones as Selective COX-1 Inhibitors” (ACS Med Chem Lett, 2014)

Chains of the proteins cited; added tags and fusions are not shown.
UniProt P23219, whole entry: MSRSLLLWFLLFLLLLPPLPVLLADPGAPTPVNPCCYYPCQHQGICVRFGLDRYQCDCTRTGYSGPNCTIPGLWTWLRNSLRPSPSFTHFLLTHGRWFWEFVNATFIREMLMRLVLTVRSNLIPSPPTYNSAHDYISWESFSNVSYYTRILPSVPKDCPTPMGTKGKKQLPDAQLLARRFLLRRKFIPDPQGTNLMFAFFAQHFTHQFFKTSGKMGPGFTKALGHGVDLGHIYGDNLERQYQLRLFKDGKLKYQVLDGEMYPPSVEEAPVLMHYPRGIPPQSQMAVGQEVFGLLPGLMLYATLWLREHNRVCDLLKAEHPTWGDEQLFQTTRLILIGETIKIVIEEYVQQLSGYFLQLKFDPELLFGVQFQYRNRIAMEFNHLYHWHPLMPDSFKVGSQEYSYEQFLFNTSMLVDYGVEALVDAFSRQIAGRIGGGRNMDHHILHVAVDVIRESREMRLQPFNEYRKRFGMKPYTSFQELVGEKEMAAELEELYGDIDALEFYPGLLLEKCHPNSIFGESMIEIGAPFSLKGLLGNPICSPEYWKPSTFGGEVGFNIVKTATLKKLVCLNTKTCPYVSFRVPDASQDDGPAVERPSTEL

Molecular target: Prostaglandin G/H synthase 1 (Homo sapiens, UniProt P23219)
Test: Inhibition of COX-1 in human OVCAR3 cells by cell-based assay
Design: species or system OVCAR-3
How it was run: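 Intact human cancer cells, OVCAR3 (COX-1-expressing) or 1483 HNSCC (COX-2-expressing), incubated with test compounds in the presence of [1-14C]-arachidonic acid. COX-derived radiolabeled prostaglandin formation was read by TLC, and IC50 values were derived.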

IC50: 180 nM
Compound: COc1ccc(C2=C(c3cccc(F)c3)C(=O)OC2)cc1
